{
  "source": "patent US20140335050A1",
  "about": "“METHODS, COMPOSITIONS, AND KITS FOR THE TREATMENT OF CANCER” (The General Hospital Corporation, priority 2011, published 2014)",
  "molecules": {"B1": {"name": "IFN-β: IFN-β-1a (Avonex) obtained from Biogen-Idec; SEQ ID NO: 1 (protein, listed as Homo sapiens)", "chain": "MSYNLLGFLQRSSNFQCQKLLWQLNGRLEYCLKDRMNFDIPEEIKQLQQFQKEDAALTIYEMLQNIFAIFRQDSSSTGWNETIVENLLANVYHQINHLKTVLEEKLEKEDFTRGKLMSSLHLKRYYGRILHYLKAKEYSHCAWTIVRVEILRNFYFINRLTGYLRN", "modifications": "(1)..(166) IFN-beta-1a"}},
  "type_in_all_cases": "cell-based, human",
  "key": {"MU89 melanoma cells": {"system": "MU89 melanoma cells", "experiment": "Tumor cell/T cell co-culture IL-2 ELISA (Melan-A/MART-1 specific TCR Jurkat line J-TCR-M1 as responder)", "source_text": "The assay relies on the use of an antigen-specific responder T cell line. […] The chosen TCR reacts specifically to a Melan-A/MART-1 decapeptide (26[…]35) presented by HLA-A2, with appropriate triggering of T cell activation. We then used a lentiviral vector system for transduction of this specific TCR into the J.RT3-T3.5 T cell line, a Jurkat cell derivative which fails to express endogenous surface TCR through a mutation in its beta chain.\nWe evaluated several candidate melanoma cell lines for the ability to stimulate the J-TCR-M1 cell line. Levels of Melan-A/MART-1 (determined by intracellular staining and flow cytometry) and corresponding levels of induced IL-2 (determined by coculture with J-TCR-M1 and IL-2 ELISA) were tested for different melanoma cell lines.\nThe 480 compounds were tested in six parallel 96 well plates. The first two columns (16 wells) of each plate were used for standards (8 wells), untreated controls (4 wells), and positive controls (4 wells). The other ten columns (80 wells) were used for testing compounds in separate wells. […]\nThe protocol for evaluation of the cytokine IL-2 was performed using a the BD OptEAI kit, human IL-2 ELISA set from BD Biosciences (San Diego, Calif.) following the manufacturer's recommendations. The absorbance 450 nm was read in a BioRad 3550 plate reader. […] IL-2 levels for experimental samples (pg/ml) were calculated from the standard curve. […]"}, "MU89 melanoma cell line": {"system": "MU89 melanoma cell line", "experiment": "Antibody staining and flow cytometry (intracellular Melan-A/MART-1, gp100, TRP-2; surface MHC Class I/II)", "method": "(§1) Cells were fixed with 1% formaldehyde, permeabilized with 0.1% saponin, stained with monoclonal antibodies to melanocyte antigens. Antibodies were obtained with specificity for: MART-1 from Vector Labs (Burlingame, Calif.); gp100 HMB45 from DakoCytomation (Carpinteria, Calif.) and then visualized with goat anti-mouse FITC-conjugated secondary antibody from Invitrogen (Fredrick, Md.). The level of EGFP was determined by flow cytometry of unfixed cells that were washed and resuspended in 1×PBS.\n(§2) Cells were plated at a density of 1×10^5 in 1 ml of medium in a 24-well plate and cultured for varying times as indicated in results. Typically, 3 days of culture in the presence of Hsp90 inhibitors was optimal for the functional studies performed. After incubation, cells were collected by trypsinization and then evaluated by flow cytometry.\nIntracellular staining and flow cytometric analyses of cytoplasmic Melan-A/MART-1, and gp100 expression were performed as described previously. Cells were fixed with 1% formaldehyde, permeabilized with 0.1% saponin, stained with monoclonal antibodies to melanocyte antigens. Antibodies were obtained with specificity for: Melan-A/MART-1 from Vector Labs (Burlingame, Calif.); gp100/HMB45 from DakoCytomation (Carpinteria, Calif.) and then visualized with goat anti-mouse FITC-conjugated secondary antibody from Invitrogen (Frederick, Md.). The level of EGFP was determined by flow cytometry of unfixed cells washed and resuspended in 1×PBS. Surface staining of MHC Class I was carried out using the antibody W6/32 on cells harvested with Cell Stripper from MediaTech Inc. (Manassas, Va.) and carried out on ice.\nCell were seeded at 1×10^6 cells in a T25 flask with 10 ml of media for the 4 day IFN-beta pre-treatments. Cells were then harvested and plated in 24 well plate at 1×10^5 cells per well in 1 ml of media for 3 day treatments.\nFor surface staining of HLA Class I and II antigens, cells were harvested using CellStripper™ from Mediatech (Manassas, Va.). All staining steps were performed on ice. Following a first incubation with antibody to Class I (W6/32) or Class II (L243) for 30 minutes. Stained cells were washed twice with cold PBS and then stained with a goat anti-mouse FITC secondary antibody to allow for quantitative analysis by flow cytometry. For evaluation of cytoplasmic antigens, including Melan-A/MART-1 and gp100, cells were first fixed in paraformaldehyde and permeabilized with saponin as previously described. Staining for cytoplasmic antigens was carried out at room temperature (22° C.)."}, "[1]": {"system": "H59-44T melanoma cell line", "experiment": "Intracellular antibody staining and flow cytometry (Melan-A/MART-1, gp100/HMB45)", "settings": "IFN-β 5000 IU/ml for three days", "method": "as §1, §2\n(§3) Intracellular staining and flow cytometric analyses of cytoplasmic Melan-A/MART-1, and gp100 expression were performed as described previously. Cells were fixed with 1% formaldehyde, permeabilized with 0.1% saponin, stained with monoclonal antibodies to melanocyte antigens. […] The level of EGFP was determined by flow cytometry of unfixed cells washed and resuspended in 1×PBS. […]"}, "453A melanoma cell line": {"system": "453A melanoma cell line", "experiment": "Intracellular antibody staining and flow cytometry (Melan-A/MART-1, gp100/HMB45)", "settings": "IFN-β 5000 IU/ml for three days", "method": "as §1, §2, §3"}, "[2]": {"settings": "MU89, IFN-β 5000 IU/ml for three days"}, "[3]": {"settings": "MU89, 3 days, IFN-beta 5000 Units/ml, 17-AEP 1.0, PU-H71 0.3, CCT018159 10.0 μg/ml"}, "[4]": {"settings": "MU89, three days, IFN-β 5000 Units/ml, IFN-γ 100 ng/ml, PU-H71 0.3 mg/ml"}},
  "data": [
    {"molecule": "B1", "values": [
      {"measurement": "IL-2 after coculture with MART-1 TCR Jurkat cells", "setting": "MU89 melanoma cells; [2]", "result": 96, "unit": "pg/mL"},
      {"measurement": "Increase of IL-2 levels on co-culture with Jurkat MART-1 TCR cell line", "setting": "MU89 melanoma cells; MU89 treated with single agent (FIG. 9)", "result": 2, "unit": "fold"},
      {"measurement": "Class I, fold increase relative to untreated control", "setting": "MU89 melanoma cell line; [3]", "result": 2.8, "unit": "fold"},
      {"measurement": "Class I, geometric mean of surface staining (W6/32)", "setting": "MU89 melanoma cell line; [3]", "result": 51},
      {"measurement": "MART-1, fold increase relative to untreated control", "setting": "MU89 melanoma cell line; [3]", "result": 1.8, "unit": "fold"},
      {"measurement": "MART-1, geometric mean of intracellular staining", "setting": "MU89 melanoma cell line; [3]", "result": 59},
      {"measurement": "TRP-2, fold increase relative to untreated control", "setting": "MU89 melanoma cell line; [3]", "result": 1.6, "unit": "fold"},
      {"measurement": "TRP-2, geometric mean of intracellular staining", "setting": "MU89 melanoma cell line; [3]", "result": 150},
      {"measurement": "gp100, fold increase relative to untreated control", "setting": "MU89 melanoma cell line; [3]", "result": 1.1, "unit": "fold"},
      {"measurement": "gp100, geometric mean of intracellular staining", "setting": "MU89 melanoma cell line; [3]", "result": 140},
      {"measurement": "MHC Class I, geometric mean of surface staining (W6/32)", "setting": "MU89 melanoma cell line; MU89, 4 day IFN-β pre-treatment (5000 Units/ml), then 3 days with fresh IFN-β and the labelled HSP90 inhibitor (label IFN-β: no inhibitor), 17-AEP 1, PU-H71 0.3, CCT018159 10 mg/ml", "result": 115},
      {"measurement": "MHC Class I, geometric mean of surface staining (W6/32)", "setting": "MU89 melanoma cell line; MU89, 4 day IFN-β pre-treatment (5000 Units/ml), then 3 days without IFN-β with the labelled HSP90 inhibitor (label IFN-β: no inhibitor), 17-AEP 1, PU-H71 0.3, CCT018159 10 mg/ml", "result": 36},
      {"measurement": "MART-1, geometric mean of intracellular staining using anti-MART-1", "setting": "MU89 melanoma cell line; [2]", "result": 153},
      {"measurement": "MHC Class I, geometric mean of surface staining (W6/32)", "setting": "MU89 melanoma cell line; MU89, single agent for 3 days, no IFN-β pre-treatment, IFN-β 5000 Units/ml", "result": 83},
      {"measurement": "MHC Class I, geometric mean of surface staining (W6/32)", "setting": "MU89 melanoma cell line; MU89, three days, IFN-β 5000 Units/ml", "result": 51},
      {"measurement": "MHC Class I, geometric mean of surface staining (W6/32)", "setting": "MU89 melanoma cell line; [4]", "result": 245},
      {"measurement": "MHC Class II, geometric mean of surface staining (L2443)", "setting": "MU89 melanoma cell line; [4]", "result": 14},
      {"measurement": "L243 (MHC Class II surface staining)", "setting": "MU89 melanoma cell line; MU-89, single agent", "result": 2.8},
      {"measurement": "W6/32 (MHC Class I surface staining)", "setting": "MU89 melanoma cell line; MU-89, single agent", "result": 151.3},
      {"measurement": "MART-1, geometric mean of intracellular staining using anti-MART-1", "setting": "[1]", "result": 103},
      {"measurement": "MART-1, geometric mean of intracellular staining using anti-MART-1", "setting": "453A melanoma cell line", "result": 113}
    ]}
  ]
}
